pKi: −log10 of the molar value.
Target: cannabinoid receptor 2 (CB2R) (Homo sapiens, UniProt P34972)
Test: radioligand binding assay, [3H]CP […] displacement

The chains behind the UniProt entries cited, without tags or fusion partners.
UniProt P34972, whole entry: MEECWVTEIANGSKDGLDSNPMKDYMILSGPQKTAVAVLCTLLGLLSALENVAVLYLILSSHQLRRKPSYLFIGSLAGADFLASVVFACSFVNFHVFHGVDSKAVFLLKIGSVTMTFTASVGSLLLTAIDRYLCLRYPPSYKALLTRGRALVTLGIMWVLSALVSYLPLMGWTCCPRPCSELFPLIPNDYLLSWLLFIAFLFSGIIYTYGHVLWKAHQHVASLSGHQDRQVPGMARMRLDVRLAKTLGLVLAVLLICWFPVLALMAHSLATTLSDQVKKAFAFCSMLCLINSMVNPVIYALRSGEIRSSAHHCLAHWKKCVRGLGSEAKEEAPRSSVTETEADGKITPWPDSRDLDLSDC

SMILES: Cc1ccc(N2C(=O)[C@H]3[C@@H](CC(=O)c4ccccc4)Cc4oc5ccccc5c4[C@H]3C2=O)cc1
- pKi: 5.44

— PMC9724349, “Discovery of a pyrano[2,3-b]pyridine derivative YX-2102 as a cannabinoid receptor 2 agonist for alleviating lung fibrosis” (Journal of Translational Medicine, 2022)
